Test results taken from PubChem BioAssay AID430 (Sanford-Burnham Center for Chemical Genomics, 2006).
This is a selection; strong and weak results do not stand in their true shares. Potency and affinity values are given separately. Activity calls are given as the source filed them. Rule as the data show it: active = cytotoxicity above about 50%; inactive = the rest.

Experiment: cytotoxicity in HPDE-C7 cells, cell-based, fluorescence, HTS (AID 430);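 also: cells exposed to compound for 48 hours before viability readout; 0% = vehicle and 100% = reference cytotoxic drug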
Details: HPDE-C7 pancreatic duct cells viability, at 10 µM, stronger effect = higher value

Row | SMILES | cytotoxicity
1 | CN(C)CCOC(=O)C(O)(c1ccccc1)C1CCCCC1 (stereo not drawn) | inactive: -2.5%
2 | Cc1ccccc1NP(C)(=O)Nc1ccccc1C | inactive: -13.1%
3 | CP(=O)(Nc1ccc2c(c1)OCCO2)Oc1ccccc1 (stereo not drawn) | inactive: 7.7%
4 | CCOP(C)(=S)SCC(=O)NC(C)(CC)C(=O)O (stereo not drawn) | inactive: -16.3%
5 | CP(=O)(Nc1ccccc1F)Oc1ccccc1 (stereo not drawn) | inactive: -7.9%
6 | Cc1nc2ccc3ccccc3c2o1.O=[N+]([O-])c1cc([N+](=O)[O-])c(O)c([N+](=O)[O-])c1 | inactive: 5.1%
7 | COc1ccccc1OP(C)(=O)Nc1ccc(C)c(C)c1 (stereo not drawn) | inactive: -1.5%
8 | CP(=O)(Nc1ccccn1)Oc1ccccc1 (stereo not drawn) | inactive: 8.5%
9 | COc1ccccc1OP(C)(=O)Nc1c(C)n(C)n(-c2ccccc2)c1=O (stereo not drawn) | inactive: -11.2%
10 | CP(=O)(Oc1ccccc1)N1CCOC1=O (stereo not drawn) | inactive: 3.5%
11 | CCN(CC)CC(O)COC(=O)C(O)(c1ccccc1)C1CCCCC1 (stereo not drawn) | inactive: 17.1%
12 | CP(=S)(Nn1cnnc1)Oc1ccccc1 (stereo not drawn) | inactive: 0.7%
13 | CCOP(C)(=S)SCC(=O)NC(C)C(=O)O (stereo not drawn) | inactive: -18.2%
14 | CP(=O)(NC(=O)Nc1ccccc1)Oc1ccccc1 (stereo not drawn) | inactive: -9.2%
15 | Cc1ccc(NP(C)(=O)Oc2ccccc2)c(C)c1 (stereo not drawn) | inactive: -9.5%
16 | COc1ccccc1OP(C)(=O)Nc1ccc(C)cc1 (stereo not drawn) | inactive: 0.6%
17 | Cc1ccc(C)c(NP(C)(=O)Oc2ccccc2)c1 (stereo not drawn) | inactive: 5.2%
18 | Cc1nc2ccc3ccccc3c2s1.O=[N+]([O-])c1cc([N+](=O)[O-])c(O)c([N+](=O)[O-])c1 | inactive: -10.5%
